Test [1] deals with Carbonic anhydrase 2 (Homo sapiens) (UniProt P00918).
The species entered for another test is Homo sapiens. As to the kind of experiment: Selectivity for human recombinant CA9 over human recombinant CA2.
The target of test [2] is Carbonic anhydrase 9 (Homo sapiens) (UniProt Q16790).
The target of test [3] is Carbonic anhydrase 1 (Homo sapiens) (UniProt P00915).

By UniProt entry, the sequences of proteins in these tests, tags left out. Where a name states a change or a piece, a line headed by the entry shows the natural chain unless it says otherwise.
UniProt P00915: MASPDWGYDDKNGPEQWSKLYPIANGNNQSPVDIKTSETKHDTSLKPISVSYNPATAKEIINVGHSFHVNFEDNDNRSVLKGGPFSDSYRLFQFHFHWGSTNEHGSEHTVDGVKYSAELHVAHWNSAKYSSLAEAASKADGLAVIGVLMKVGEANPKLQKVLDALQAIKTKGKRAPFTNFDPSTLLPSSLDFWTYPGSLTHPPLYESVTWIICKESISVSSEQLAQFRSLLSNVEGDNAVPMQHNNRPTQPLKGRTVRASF

This passage reports Kinact and Selectivity ratio results from ChEMBL document CHEMBL1146383, “Carbonic anhydrase inhibitors: inhibition of cytosolic/tumor-associated isoforms I, II, and IX with iminodiacetic carboxylates/hydroxamates also incorporating benzenesulfonamide moieties” (Bioorg Med Chem Lett, 2007).

For `NS(=O)(=O)c1ccc(CCNC(=O)CN(CC(=O)NO)S(=O)(=O)c2ccc(Oc3ccccc3)cc2)cc1`, the results for the Kinact in test [1], in test [2] and in test [3] were 65 nM, 12 nM and 95 nM, respectively. Moreover, the Selectivity ratio in the test listed under Homo sapiens worked out at 5.41.
As for `NS(=O)(=O)c1ccc(CCNC(=O)CN(CC(=O)NO)S(=O)(=O)c2ccc(-c3ccccc3)cc2)cc1`, the Kinact in test [1] came to 35 nM; in test [2], 13 nM; in test [3] it was 2490 nM. For the same compound, the Selectivity ratio in the test filed under Homo sapiens is 2.69.
